PubChem BioAssay AID2057 (The Scripps Research Institute Molecular Screening Center, 2009)
The entries are a selection whose mix differs from that of the whole data set. Activity calls are given as the source filed them.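 Rule for the calls: active = inhibition above the mean inhibition of all tested compounds plus 3 SD, set per campaign (cut at about 40% in these data); inactive = the rest.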

The chains behind the UniProt entries cited, without tags or fusion partners.
UniProt Q07820, whole entry: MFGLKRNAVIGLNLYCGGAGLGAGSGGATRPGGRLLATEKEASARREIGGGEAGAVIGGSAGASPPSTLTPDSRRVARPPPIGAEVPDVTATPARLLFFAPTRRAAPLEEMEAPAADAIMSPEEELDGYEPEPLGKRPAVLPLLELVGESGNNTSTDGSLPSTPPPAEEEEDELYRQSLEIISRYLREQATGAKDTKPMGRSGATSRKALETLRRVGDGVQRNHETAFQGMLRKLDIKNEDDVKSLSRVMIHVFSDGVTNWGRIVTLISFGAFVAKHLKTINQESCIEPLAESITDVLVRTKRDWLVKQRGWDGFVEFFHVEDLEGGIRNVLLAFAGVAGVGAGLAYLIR

The molecules below were run against Induced myeloid leukemia cell differentiation protein Mcl-1 (Homo sapiens) (UniProt Q07820) (assay: inhibitors of MCL1 binding to BIM-BH3, primary screen, biochemical, fluorescence polarization (AID 2057;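 note: 0% = DMSO wells and 100% = unlabeled Bim-BH3 peptide control; higher means more loss of mP so more displacement of Bim peptide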)). Conditions: GST-MCL1 / FITC-Bim-BH3 fluorescence polarization; at 10.9 µM; hits give high values.

| Compound | inhibition |
| --- | --- |
| COc1cc(OC)c(C(=O)NCC2(N(C)C)CCCCC2)cc1OC | inactive: 1.52% |
| CC(C)c1ccc(NC2CCN(C(=O)OC(C)(C)C)CC2)cc1 | inactive: 4.62% |
| COc1ccc(CN(CCCl)CCCl)cc1Cl | inactive: -6.47% |
| CN(C)c1cccc(C(=O)NCC2(N3CCCCC3)CCCCC2)c1 | inactive: 0.81% |
| CN1CCC(Nc2cccc(F)c2)CC1 | inactive: -0.84% |
| O=C(NCC1(N2CCCCC2)CCCCC1)c1cncc(Br)c1 | inactive: -2.27% |
| CCN1CCC(Nc2ccc(Cl)cc2)CC1 | inactive: 9.99% |
| N#CC1(Nc2ccccc2)CCN(CCc2ccccc2)CC1 | inactive: 2.92% |
| O=C(NCC1(N2CCCCC2)CCCCC1)c1cccc([N+](=O)[O-])c1 | inactive: -4.44% |
| O=C(NCC1(N2CCCCC2)CCCCC1)c1ccc(OC(F)F)cc1 | inactive: -15.6% |
| COc1cc(C(=O)NCC2(N3CCCCC3)CCCCC2)ccc1OC(F)F | inactive: -18% |
| O=C(NCC1(N2CCOCC2)CCCCC1)c1cc(=O)[nH]c2ccccc12 | inactive: 2.9% |
| CN1CCN(CCOC(=O)C(O)(c2ccccc2)c2ccccc2)CC1 | inactive: 4.27% |
| COc1ccc(NC2CCN(C(=O)OC(C)(C)C)CC2)cc1 | inactive: 17% |
| O=C(NCC1(N2CCCCC2)CCCCC1)c1cccc(C(F)(F)F)c1 | inactive: 0.96% |
| O=C(NCC1(N2CCCCC2)CCCCC1)c1ccc(F)cc1 | inactive: -2.44% |
| COc1ccc(NC2CCN(CCc3ccccc3)CC2)c(OC)c1 | inactive: 1.73% |
| CCOc1ccc(C)cc1CN(CCCl)CCCl | inactive: 5.5% |
| CCOC(=O)N1CCC(Nc2cccc(C)c2)CC1 | inactive: 8.37% |
| Cc1ccc(OCC(C)C)c(CN(CCCl)CCCl)c1 | inactive: 2.53% |
| CSc1ccccc1C(=O)NCC1(N2CCCCC2)CCCCC1 | inactive: 2.27% |

| Compound | inhibition |
| --- | --- |
| COc1ccc(C(=O)NCC2(N3CCCCC3)CCCCC2)cc1 | inactive: -3.48% |
| CC(C)(C)OC(=O)N1CCC(N(C(=O)c2ccccc2)c2ccc(F)cc2)CC1 | inactive: -0.54% |
| COc1ccc(C(=O)NCC2(N3CCCCC3)CCCCC2)c(OC)c1OC | inactive: 5.89% |
| O=C(NCC1(N2CCCCC2)CCCCC1)c1ccc(=O)[nH]c1 | inactive: 4.81% |
| O=C(NCC1(N2CCCCC2)CCCCC1)c1cccs1 | inactive: -12% |
| N#CC1(Nc2ccccc2)CCN(Cc2ccccc2)CC1 | inactive: 2.55% |
| O=C(NCC1(N2CCCCC2)CCCCC1)c1ccc(Cl)s1 | inactive: -0.27% |
| O=C(OC1CN2CCC1CC2)C1c2ccccc2Oc2ccccc21 (stereo unspecified) | inactive: 32.9% |
| COc1ccc(Cl)cc1C(=O)NCC1(N2CCOCC2)CCCCC1 | inactive: -7.6% |
| CCOC(=O)N1CCC(Nc2ccc(OC)cc2)CC1 | inactive: 20.2% |
| O=C(NCC1(N2CCCCC2)CCCCC1)c1ccc(Cl)nc1 | inactive: -18.1% |
| Cc1cc(C)cc(N(C(=O)c2ccccc2)C2CCN(C(=O)OC(C)(C)C)CC2)c1 | inactive: 6.05% |
| O=C(NCC1(N2CCOCC2)CCCCC1)c1cc2ccccc2o1 | inactive: 5.42% |
| CC(C)(C)OC(=O)N1CCC(Nc2ccccc2)CC1 | inactive: -0.16% |
| O=C(O)C1(Nc2ccccc2)CCN(Cc2ccccc2)CC1 | inactive: -0.58% |
| CCCOc1ccc(C(=O)NCC2(N(C)C)CCCCC2)cc1 | inactive: 3.1% |
| CCOc1ncccc1C(=O)NCC1(N2CCOCC2)CCCCC1 | inactive: 7.29% |
| CN1CCC(Nc2ccc(F)c(Cl)c2)CC1 | inactive: 7.84% |
| CN1CCC(Nc2ccc(Cl)cc2)CC1 | inactive: 6.42% |
| CCCOc1ccc(C)cc1CN(CCCl)CCCl | inactive: -1.1% |
| COc1cc(OC)cc(C(=O)NCC2(N3CCOCC3)CCCCC2)c1 | inactive: -5.75% |

| Compound | inhibition |
| --- | --- |
| COc1cccc(C(=O)N(c2cc(C)cc(C)c2)C2CCN(C(=O)OC(C)(C)C)CC2)c1 | inactive: -6.45% |
| CCC(CO)(C(=O)OC1CN2CCC1CC2)c1ccccc1 (stereo unspecified) | inactive: 7.62% |
| Cc1ccc(C(=O)NCC2(N3CCCCC3)CCCCC2)o1 | inactive: -4.5% |
| Fc1ccccc1NC1CCN(Cc2ccccc2)CC1 | inactive: 0.35% |
| COc1cc(OC)cc(C(=O)NCC2(N3CCCCC3)CCCCC2)c1 | inactive: 3.32% |
| O=C(NCC1(N2CCCCC2)CCCCC1)c1ccco1 | inactive: 3.49% |
| CN(C)c1ccc(C(=O)NCC2(N3CCCCC3)CCCCC2)cc1 | inactive: -1.32% |
| CCN1CCC(Nc2cccc(F)c2)CC1 | inactive: -3.72% |
| N#Cc1ccc(C(=O)NCC2(N3CCCCC3)CCCCC2)cc1 | inactive: -2.28% |
| CC(C)(C)OC(=O)N1CCC(N(C(=O)c2ccccc2)c2ccc(Cl)cc2)CC1 | inactive: 11.3% |
| CN(C)C1(CNC(=O)c2cccc(C#N)c2)CCCCC1 | inactive: -4.37% |
| c1ccc(CN2CCC(Nc3ccccc3)CC2)cc1 | inactive: -2.97% |
| CCCN1CCC(Nc2cc(OC)cc(OC)c2)CC1 | active: 40.7% |
| COc1ccc(C(=O)NCC2(N3CCOCC3)CCCCC2)cc1OC | inactive: -2.84% |
| O=C(NCC1(N2CCOCC2)CCCCC1)c1cc(Br)ccc1Cl | inactive: 0.28% |
| CCc1cc(C(=O)NCC2(N3CCCCC3)CCCCC2)sc1C | inactive: 2.31% |
| O=C(OC1CN2CCC1CC2)C1c2ccccc2C=Cc2ccccc21 (stereo unspecified) | inactive: 2.46% |
| CCOC(=O)N1CCC(Nc2ccc(C)cc2)CC1 | inactive: 9.37% |
| N/C(=N\O)c1c(N)no[n+]1[O-] | inactive: -3.47% |
